Values quoted from earlier work, collected in US10889565B2, “4-hydroxy-3-sulfonylpyridin-2(1H)-ones as APJ receptor agonists” (BRISTOL-MYERS SQUIBB COMPANY, priority 2016, dated 2021).

Conditions: Japp et al. 2010; cited from earlier work

In the case of Apelin, the “half life in circulation” value is given as “less than 5 minutes”.
